US7595158B2, “Bcl2L12 polypeptide activators and inhibitors” (Dana-Farber Cancer Institute, Inc., priority 2003, dated 2009)

System: p53 mediated transcription
Assay: p53 luciferase reporter (PG13) in Ink4a/Arf deficient astrocytes
Assay type: cell-based
Conditions: normalized to βGal, vs vector control
Text: Activation of the p53 transcription factor in response to a variety of cellular stresses, including DNA damage and oncogene activation, initiates a program of gene expression that blocks the proliferative expansion of damaged cells. To asses the effect of Bcl2L12 polypeptides on p53 mediated transcription, Ink4a/Arf deficient astrocytes ectopically expressing a Bcl2L12-V5 polypeptide were transfected with increasing amounts of nucleic acid encoding a p53 polypeptide and a luciferase construct bearing a dimerized p53 binding site in its promoter (PG13). […] XIAP, a caspase-9 inhibitor, had no effect on the transcriptional activity of p53.

- transcriptional activity of p53 (reporter activity): no effect
Substance: XIAP: a caspase-9 inhibitor [reference compound]
